Values of other authors in patent US20100022549A1, “ALPHA-HELIX MIMETIC WITH FUNCTIONALIZED PYRIDAZINE” (The Scripps Research Institute, priority 2008, published 2010).

Protein sequences, listed by entry. Tags and fused reporters are not part of them.
UniProt Q07817, whole entry, species assumed: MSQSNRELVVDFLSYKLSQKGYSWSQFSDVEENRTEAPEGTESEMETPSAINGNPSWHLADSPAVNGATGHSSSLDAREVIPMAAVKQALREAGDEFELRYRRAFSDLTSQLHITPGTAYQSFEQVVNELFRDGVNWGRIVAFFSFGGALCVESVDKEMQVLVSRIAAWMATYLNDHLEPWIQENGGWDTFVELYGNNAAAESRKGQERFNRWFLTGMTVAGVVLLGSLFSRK

Molecular target: Bcl-xL (Homo sapiens, UniProt Q07817)
Settings: 16 residue BH3 domain peptide from Bak (aa 72 to 87) bound to Bcl-xL

Substance: 16 residue BH3 domain peptide from Bak: 16 residue BH3 domain peptide from Bak (aa 72 to 87)
- Kd: ~300 nM
